Source: patent US7052850B2, “Isolated human EDG-4 receptor” (priority 1997, dated 2006)

Test system: human EDG-3
Assay: NF-κB luciferase reporter in 293-EBNA cells, human EDG-3
Format: cell-based
Conditions: Assay 3; pancreas EDG-3 clone; 3 μM

## CCCCCCCCCCCCC/C=C/[C@@H](O)[C@@H](N)COP(=O)(O)O [S1P, sphingosine 1-phosphate]
  induction of the NF-κB reporter gene compared to untreated controls: about 8 fold
